The target in test [1] is T1, CREB-binding protein (Homo sapiens, UniProt Q92793). The test is described as follows: Inhibition of His6-tagged human CBP bromodomain (1081 to 1197 residues) expressed in Escherichia coli BL21 (DE3) incubated for 30 mins by HTRF assay. On the technique in general: Time-resolved FRET reads energy transfer from a long-lived donor to a nearby acceptor.
In test [2] the target is T1, CREB-binding protein. The test is described as follows: Binding affinity to His6-tagged human CBP bromodomain (1081 to 1197 residues) expressed in Escherichia coli BL21 (DE3) assessed as dissociation constant by ITC analysis. Background: ITC needs no label: the signal is the heat of the interaction.

Amino acid sequences for entries named in this document (tags omitted).
UniProt Q92793, whole entry: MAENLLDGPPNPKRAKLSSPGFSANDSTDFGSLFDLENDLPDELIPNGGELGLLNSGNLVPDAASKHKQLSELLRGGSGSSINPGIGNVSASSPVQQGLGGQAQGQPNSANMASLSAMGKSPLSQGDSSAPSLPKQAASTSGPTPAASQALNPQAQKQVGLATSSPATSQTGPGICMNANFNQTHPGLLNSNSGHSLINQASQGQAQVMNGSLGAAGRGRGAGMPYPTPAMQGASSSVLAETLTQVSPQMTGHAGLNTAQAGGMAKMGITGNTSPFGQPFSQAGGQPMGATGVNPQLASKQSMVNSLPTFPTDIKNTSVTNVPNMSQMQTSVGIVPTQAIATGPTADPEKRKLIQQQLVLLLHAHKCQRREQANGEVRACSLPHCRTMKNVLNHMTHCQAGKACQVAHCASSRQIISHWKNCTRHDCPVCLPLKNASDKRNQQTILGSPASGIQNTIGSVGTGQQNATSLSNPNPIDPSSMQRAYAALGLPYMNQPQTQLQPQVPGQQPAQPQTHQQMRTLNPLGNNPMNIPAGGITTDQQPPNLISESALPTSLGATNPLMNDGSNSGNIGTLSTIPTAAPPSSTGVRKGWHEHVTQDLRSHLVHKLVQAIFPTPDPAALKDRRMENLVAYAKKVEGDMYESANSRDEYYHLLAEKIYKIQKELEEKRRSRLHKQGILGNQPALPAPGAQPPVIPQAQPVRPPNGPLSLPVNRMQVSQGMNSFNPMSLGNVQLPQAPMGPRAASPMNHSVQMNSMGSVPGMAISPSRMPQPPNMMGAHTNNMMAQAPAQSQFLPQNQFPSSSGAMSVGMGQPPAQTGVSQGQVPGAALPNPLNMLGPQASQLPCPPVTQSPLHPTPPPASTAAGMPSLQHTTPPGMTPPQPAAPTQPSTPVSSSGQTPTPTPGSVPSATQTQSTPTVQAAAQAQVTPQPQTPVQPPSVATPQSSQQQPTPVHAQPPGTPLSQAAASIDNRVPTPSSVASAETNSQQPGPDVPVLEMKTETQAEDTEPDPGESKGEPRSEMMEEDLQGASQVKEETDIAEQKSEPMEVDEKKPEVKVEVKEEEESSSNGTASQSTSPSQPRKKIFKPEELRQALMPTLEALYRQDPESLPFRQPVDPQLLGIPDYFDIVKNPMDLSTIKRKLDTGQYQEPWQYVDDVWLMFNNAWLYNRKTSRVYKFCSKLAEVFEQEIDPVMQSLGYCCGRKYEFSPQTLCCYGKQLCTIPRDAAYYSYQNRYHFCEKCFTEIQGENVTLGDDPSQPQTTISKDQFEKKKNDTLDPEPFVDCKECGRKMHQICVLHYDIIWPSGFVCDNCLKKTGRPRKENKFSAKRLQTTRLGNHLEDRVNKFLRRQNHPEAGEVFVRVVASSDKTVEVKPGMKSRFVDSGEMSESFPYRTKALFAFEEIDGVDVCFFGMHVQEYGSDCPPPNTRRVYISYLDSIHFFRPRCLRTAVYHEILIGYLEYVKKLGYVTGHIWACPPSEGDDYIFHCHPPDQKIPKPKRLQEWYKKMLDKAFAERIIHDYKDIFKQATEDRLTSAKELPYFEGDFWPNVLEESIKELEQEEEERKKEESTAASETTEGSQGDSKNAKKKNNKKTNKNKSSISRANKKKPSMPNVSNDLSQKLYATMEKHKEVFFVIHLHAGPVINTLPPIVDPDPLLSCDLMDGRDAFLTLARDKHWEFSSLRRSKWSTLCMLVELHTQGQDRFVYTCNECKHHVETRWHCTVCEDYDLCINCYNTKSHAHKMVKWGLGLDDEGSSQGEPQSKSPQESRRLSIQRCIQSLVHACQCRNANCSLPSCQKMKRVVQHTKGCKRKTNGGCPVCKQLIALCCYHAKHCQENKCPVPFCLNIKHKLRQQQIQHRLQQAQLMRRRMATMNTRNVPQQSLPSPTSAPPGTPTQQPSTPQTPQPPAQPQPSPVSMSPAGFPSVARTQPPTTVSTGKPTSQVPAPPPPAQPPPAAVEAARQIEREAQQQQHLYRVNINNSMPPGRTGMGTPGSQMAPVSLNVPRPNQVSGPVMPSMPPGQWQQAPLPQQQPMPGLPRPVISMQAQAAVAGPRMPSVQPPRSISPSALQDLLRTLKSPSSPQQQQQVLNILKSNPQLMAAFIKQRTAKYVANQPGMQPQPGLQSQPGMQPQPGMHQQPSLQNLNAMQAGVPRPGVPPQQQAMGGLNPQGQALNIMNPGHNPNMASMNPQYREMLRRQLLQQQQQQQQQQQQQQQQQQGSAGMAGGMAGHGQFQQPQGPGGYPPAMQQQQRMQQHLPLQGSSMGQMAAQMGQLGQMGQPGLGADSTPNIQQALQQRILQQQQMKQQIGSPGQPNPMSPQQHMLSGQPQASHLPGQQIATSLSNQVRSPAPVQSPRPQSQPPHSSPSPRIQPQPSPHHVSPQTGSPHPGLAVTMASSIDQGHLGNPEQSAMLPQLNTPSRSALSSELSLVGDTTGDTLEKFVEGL

With `CO[C@H]1CC[C@H](n2c([C@@H]3CCCC(=O)N3c3ccc(F)c(F)c3)nc3cc(-c4c(C)noc4C)ccc32)CC1` [INOBRODIB], the IC50 (commonly the midpoint of a concentration-inhibition curve) on CREB-binding protein [1] came to 2.05 nM. For the same molecule, on CREB-binding protein [2], the Kd (commonly the constant that tells how readily two partners part at equilibrium) came out at 14 nM.

The record behind these values is ChEMBL document CHEMBL5154675, “Design, Synthesis, and Biological Evaluation of 1-(Indolizin-3-yl)ethan-1-ones as CBP Bromodomain Inhibitors for the Treatment of Prostate Cancer” (J Med Chem, 2022).
